From patent US12679836B2, “4H-pyrrolo[3,2-c]pyridin-4-one compounds” (Bayer Aktiengesellschaft, priority 2019, dated 2026) come the findings set out here.

By UniProt entry, the sequences of proteins in these tests, tags left out. Chains listed by the source or under a name are the forms on record and can include a tag or linker.
UniProt P00533, with tags, fused parts or gaps DUP768-770: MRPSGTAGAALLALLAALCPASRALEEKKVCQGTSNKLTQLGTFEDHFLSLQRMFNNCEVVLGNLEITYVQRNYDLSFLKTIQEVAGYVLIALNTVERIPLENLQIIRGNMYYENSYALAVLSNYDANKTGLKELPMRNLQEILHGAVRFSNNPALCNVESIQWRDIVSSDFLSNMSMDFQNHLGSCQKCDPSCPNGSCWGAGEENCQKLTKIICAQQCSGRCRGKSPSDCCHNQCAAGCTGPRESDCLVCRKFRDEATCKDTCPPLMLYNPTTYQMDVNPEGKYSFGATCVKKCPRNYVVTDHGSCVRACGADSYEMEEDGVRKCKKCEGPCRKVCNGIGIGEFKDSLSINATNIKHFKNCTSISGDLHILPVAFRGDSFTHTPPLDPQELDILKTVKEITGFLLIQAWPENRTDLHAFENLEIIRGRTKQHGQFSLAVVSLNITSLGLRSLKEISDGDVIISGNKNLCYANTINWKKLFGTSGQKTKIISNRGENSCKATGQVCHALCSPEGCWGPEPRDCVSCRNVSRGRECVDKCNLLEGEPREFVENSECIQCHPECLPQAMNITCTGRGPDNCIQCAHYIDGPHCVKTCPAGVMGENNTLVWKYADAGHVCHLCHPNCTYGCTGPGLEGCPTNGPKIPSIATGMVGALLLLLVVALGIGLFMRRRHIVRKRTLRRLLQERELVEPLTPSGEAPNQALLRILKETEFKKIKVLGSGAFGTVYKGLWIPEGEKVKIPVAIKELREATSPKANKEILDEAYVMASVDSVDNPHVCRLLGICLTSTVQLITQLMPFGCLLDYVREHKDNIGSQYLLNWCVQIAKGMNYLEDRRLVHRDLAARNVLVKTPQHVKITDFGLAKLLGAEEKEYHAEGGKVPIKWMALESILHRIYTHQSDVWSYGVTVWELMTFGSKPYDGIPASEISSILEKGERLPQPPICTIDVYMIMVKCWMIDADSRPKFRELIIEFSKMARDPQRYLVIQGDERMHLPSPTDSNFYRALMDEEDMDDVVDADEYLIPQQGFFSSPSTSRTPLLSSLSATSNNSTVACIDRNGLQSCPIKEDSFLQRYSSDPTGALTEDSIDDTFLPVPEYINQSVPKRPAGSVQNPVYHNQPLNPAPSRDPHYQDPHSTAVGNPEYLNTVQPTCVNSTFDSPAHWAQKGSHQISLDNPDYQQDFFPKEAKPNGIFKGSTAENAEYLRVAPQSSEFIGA

The structures appear in SMILES notation. A value given as a limit tells only on which side of the number the result lay.

The target of this assay is Ba/F3-EGFR-insSVD cells (Homo sapiens, UniProt P00533, DUP768-770, cells depend on it). The assay is described as follows: Ba/F3 cell survival assay (Cell Titer-Glo), EGFR-insSVD. The format is cell-based. The following applies: read-out: BA/F3 (insSVD) IC50 [mol/l]; Table 5, prior art compounds of WO 2016/120196. How it is done: 293T cells from ATCC were transfected with pBABEpuro expression constructs for WT EGFR or EGFR-insSVD and pCL-Eco packaging vector using Fugene-6 transfection reagent from Promega. Plates were incubated at 37° C. for 48 h. Retrovirus was harvested by filtering the media supernatant through a 0.45 μm filter.
Ba/F3 cells purchased from DSMZ were grown in RPMI+10% FBS+10 ng/mL IL-3 and infected with filtered retroviral supernatant at a 1:2 dilution. Polybrene was added to a concentration of 8 μg/mL, plates were spun for 90 min, and incubated overnight at 37° C. 2 μg/mL puromycin was added to the infected cells 24 h after infection and cells were continually grown in the presence of puromycin and 10 ng/mL IL-3. Following stably expressing Ba/F3 cell lines were generated: Ba/F3-EGFR-WT, Ba/F3-EGFR-insSVD, (Ba/F3-vector-control).
For cell survival assays, Ba/F3 cells were grown to a density of 1-2 million cells per mL, spun down and resuspended in media without IL-3, and replated at a concentration 200,000-500,000 cells per mL. The cells ectopically expressing WT EGFR or EGFR-insSVD were plated with 10 ng/mL Millipore Culture grade EGF. The cells ectopically expressing pBABEpuro empty vector were plated with 10 ng/mL IL-3. 2 days later, cells were plated in 50 μL in a 384 well plate at a concentration of 4000 cells per well for cells assayed in the absence of IL-3 and 2000 cells per well for cells assayed in the presence of IL-3. 100 nL of compound was added to each well using a 100 nL pin head, and plates were incubated at 37° C. for 48 h.
Cell viability was measured by adding 20 μL of Cell Titer-Glo Luminescent Cell Viability Reagent diluted 1:3 in PBS. Plates were sealed with Perkin Elmer Top-Seal, inverted several times to mix, and immediately centrifuged at 1000 rpm for 2 min. Plates were incubated in low light conditions for 8-10 min and luminescence was measured.
On to `COCCOc1cnccc1-c1[nH]c2c(c1Nc1ccc(F)c(F)c1)C(=O)NCC2`, for which the GI50 was over 2 µM.

Regarding `O=C1NCCc2[nH]c(-c3ccncc3OCC3CC3)c(Nc3ccc(F)cc3)c21`, the GI50 is over 2 µM.

For `O=C1NCCc2[nH]c(-c3ccncc3OCC(F)F)c(Nc3cccc(F)c3)c21`, the GI50 was over 2 µM.
